Like-named read-outs stand apart in the source and are kept apart here.
Molecular target: CYP3A (Homo sapiens, UniProt P08684)
Conditions: for Ratio: IC50 3 min / 33 min preincubation
[1] = 100 μM, HLMs, 3 min or 33 min preincubation, inhibition slightly time dependent
[2] = read-out: Time-dependent inhibition IC50 Preincubation for 3 min, constituents, HLMs, 3 min preincubation
[3] = read-out: Time-dependent inhibition IC50 Preincubation for 33 min, constituents, HLMs, 33 min preincubation

Sequences of proteins named here, by UniProt entry; tags and fusion partners are left off. Residues count along the entry.
UniProt P08684, 2-503: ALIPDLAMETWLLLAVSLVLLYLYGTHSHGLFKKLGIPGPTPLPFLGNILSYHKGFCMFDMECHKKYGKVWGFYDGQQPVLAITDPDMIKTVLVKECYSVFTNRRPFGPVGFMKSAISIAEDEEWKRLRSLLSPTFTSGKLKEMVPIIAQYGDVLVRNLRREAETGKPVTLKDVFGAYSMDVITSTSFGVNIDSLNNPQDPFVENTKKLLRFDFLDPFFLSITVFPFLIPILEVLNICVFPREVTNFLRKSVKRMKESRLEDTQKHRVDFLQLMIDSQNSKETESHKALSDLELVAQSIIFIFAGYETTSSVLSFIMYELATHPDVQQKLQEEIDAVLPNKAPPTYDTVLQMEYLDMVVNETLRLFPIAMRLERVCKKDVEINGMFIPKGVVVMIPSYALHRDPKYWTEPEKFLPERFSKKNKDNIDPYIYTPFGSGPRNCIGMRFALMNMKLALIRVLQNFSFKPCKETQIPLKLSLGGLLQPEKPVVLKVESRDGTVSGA

Substance | inhibitory effects against CYP3A [1] | IC50 [2] [µM] | IC50 [3] [µM] | Ratio (constituents) | inhibitory effects against CYP3A (microsomes) | IC50 (microsomes) [µM]
Isochlorogenic acid B | weak inhibitory effects | > 100 | > 100 | – | – | –
Isochlorogenic acid C | weak inhibitory effects | > 100 | > 100 | – | – | –
Neochlorogenic acid | – | – | – | – | weak inhibitory effects | > 100
Rutinum | – | – | – | – | – | > 100

Further lines, with some results ahead:

inhibitory effects against CYP3A [1] | IC50 [2] [µM] | IC50 [3] [µM] | Ratio (constituents) | inhibitory effects against CYP3A (microsomes) | Substance | IC50 (microsomes) [µM]
weak inhibitory effects | > 100 | > 100 | – | – | Cryptochlorogenic acid | –
weak inhibitory effects | > 100 | > 100 | – | – | Isochlorogenic acid A | –
– | 2 ± 0.1 | 0.93 ± 0.04 | 2.15 | – | Licochalcone A | –
– | 14.1 ± 1.55 | 6.81 ± 0.66 | 2.07 | – | Licochalcone B | –
– | 6.02 ± 0.41 | 2.51 ± 0.12 | 2.40 | – | Licochalcone C | –

Source: publication PMC8237038 (Acta Pharmacologica Sinica, 2021)
